Experimental data as given in patent publication US20060188501A1, “Diagnostic and therapeutic agents for rheumatoid arthritis” (Kyowa Hakko Kogyo Co., Ltd., priority 2000, published 2006).

Tested on: Synoviocytes derived from a rheumatoid arthritis patient
Test: Growth of synoviocytes measured by MTT assay
Assay type: cell-based, human
Conditions: Herceptin 0.01, 0.1 and 1 μg/ml, 7 days culture, FIG. 3
Description: Synoviocytes were prepared from the diseased part of a rheumatoid arthritis patient according to the method described in Biochem. Biophys. Res. Com., 210, 1066-75 (1995). That is, synoviocytes obtained from a rheumatoid arthritis patient by surgery were minced, followed by enzyme treatment in RPMI1640 medium containing collagenase (4 mg/ml) at 37° C. for 4 hours to loosen the cells. The obtained cells were cultured in a growth medium (RPMI1640 containing 10% fetal calf serum) in a humidified CO2 incubator (5% CO2), with replacement of the growth medium at intervals of 3 to 4 days. […]
Participation of c-erbB-2 expressed in synoviocytes in the growth of synoviocytes was clarified by inhibition of phosphorylation of c-erbB-2 in the following manner. The growth of synoviocytes was measured by the assay using MTT [3,(4,5-dimethylthiazol-2-yl)2,5-diphenyl-tetrazolium bromide] […]
Synoviocytes derived from a rheumatoid arthritis patient which were prepared in the same manner as in Example 1 were seeded on a 96-well microplate in an amount of 5×10^3 cells/well and precultured in the growth medium at 37° C. overnight. […] Then, 100 μl of dimethyl sulfoxide was added to dissolve the fomazan complex and the absorbance at the wavelength of 590 nm was measured with 96-well multiscanner Immno-Mini (Japan Inter Med) as the degree of cell growth. […]

With “Herceptin: anti-c-erbB-2 monoclonal antibody (Genentech Inc.) considered to specifically inhibit the activation of c-erbB-2” the “growth of synoviocytes (absorbance at 590 nm, MTT)” value was “inhibited in a manner dependent on the Herceptin concentration”.
